This passage reports IC50 results from patent US7094798B1, “Inhibitors of checkpoint kinases (Wee1 and Chk1)” (Pfizer Inc, priority 2002, dated 2006).

This test has as its target T1, human Wee1 kinase aa215-647 (Homo sapiens, UniProt P30291).
T1 construct: human Wee1 kinase aa215-647; purchased Onyx Pharmaceuticals; host or cells: baculovirus protein expression system
T1 sequence (P30291 215-646 limits assumed): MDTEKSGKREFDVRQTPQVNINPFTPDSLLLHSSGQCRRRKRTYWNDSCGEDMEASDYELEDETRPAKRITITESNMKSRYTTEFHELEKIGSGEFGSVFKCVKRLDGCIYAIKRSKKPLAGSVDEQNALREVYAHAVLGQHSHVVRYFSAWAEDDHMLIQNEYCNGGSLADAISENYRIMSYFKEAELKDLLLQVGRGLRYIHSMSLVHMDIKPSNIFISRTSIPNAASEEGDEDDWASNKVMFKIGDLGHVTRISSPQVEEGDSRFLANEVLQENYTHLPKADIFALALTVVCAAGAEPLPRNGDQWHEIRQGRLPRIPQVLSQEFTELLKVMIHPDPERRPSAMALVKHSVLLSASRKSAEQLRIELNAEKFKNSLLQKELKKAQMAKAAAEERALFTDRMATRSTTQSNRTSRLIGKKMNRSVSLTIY
The test can be described thus: Wee1 inhibition filter binding assay (OY). The format is biochemical. The note with it: isolated Wee1 kinase, Poly Ornithine:Tyrosine (4:1) substrate; read-out: WEE1OY IC50.
As to `O=C1NC(=O)c2c1c(-c1c(Cl)cccc1Cl)cc1c2c2cc(O)ccc2n1CCO` [Example 94, 4-(2,6-Dichlorophenyl)-9-Hydroxy-6-(2-hydroxyethyl)pyrrolo[3,4-c]carbazole-1,3(2H,6H)-dione], the 50% inhibitory concentration (IC50) turned out to be 263 nM. With `O=C(O)CCn1c2ccc(O)cc2c2c3c(c(-c4ccccc4Cl)cc21)C(=O)NC3=O` [Example 230, 3-(4-(2-Chlorophenyl)-9-hydroxy-1,3-dioxo-2,3-dihydropyrrolo[3,4-c]carbazol-6 (1H)-yl)propanoic acid], the IC50 worked out at 9 nM. `O=C1NC(=O)c2c1c(-c1ccccc1)cc1oc3ccc(O)cc3c21` [Example 369, 9-Hydroxy-4-phenyl-1H-[1] benzofuro[3,2-e]isoindole-1,3(2H)-dione]: the IC50 was 428 nM.

Broadly, the IC50 is the concentration at which inhibition is half-maximal.
